# Values of other authors as cited in patent US20030194514A1 (priority 2002, published 2003).
# Conditions: per Brit. 1,132,417; cited from earlier work
substance,measurement,value
beta-ionone,Effectiveness of the solvent in stabilizing propargyl bromide,effective
